The structures appear in SMILES notation.

The experiment deals with telogen hair follicles of normal C57BL/6 mice. Briefly: induction of anagen by topical treatment of normal mice in telogen. Particulars: mouse, in vivo.

For `N#CCC(C1CCCC1)n1cc(-c2ncnc3[nH]ccc23)cn1` (centres unmarked) [INCB018424], the “number of hair follicles vs vehicle treated” value is “greater” and the “thickness of hair follicles vs vehicle treated” value is listed as “greater”.

Source of the values: patent US11806555B2, “Methods for treating hair loss disorders” (THE TRUSTEES OF COLUMBIA UNIVERSITY IN THE CITY OF NEW YORK, priority 2010, dated 2023).
